# Yeast mating assay 1: variants of the scFv Ab-14

From the AlphaSeq antibody data of Engelhart et al. 2022 (doi:10.1038/s41597-022-01779-4), copy in the FLAb collection.

Antigen: PDVDLGDISGINAS, a 14-residue peptide of the SARS-CoV-2 spike HR2 region.

Ab-14 is the parent antibody, in scFv form: VH, then the linker GGGGSGGGGSGGGGS, then VL. The light chain is unchanged in all variants.
VH: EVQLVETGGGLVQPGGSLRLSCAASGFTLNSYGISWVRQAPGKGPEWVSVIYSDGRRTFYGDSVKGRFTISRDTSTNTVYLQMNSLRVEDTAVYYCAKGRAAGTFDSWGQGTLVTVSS
VL: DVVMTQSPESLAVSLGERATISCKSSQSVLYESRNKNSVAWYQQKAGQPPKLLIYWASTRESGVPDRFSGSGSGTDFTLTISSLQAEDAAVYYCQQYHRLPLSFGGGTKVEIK

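The library (AAYL49) carries one to three amino acid substitutions per variant, with no insertions or deletions. Affinity was read by AlphaSeq, a pooled yeast mating assay with surface-displayed partners. Pairs that bind mate more often; barcode pairs of the diploids are counted by sequencing. The ratio of observed to expected reads was calibrated, replicate by replicate, on BCL2-family standards whose Kd was known from biolayer interferometry. Each pool was mated in three replicate cultures.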

The parent's heavy chain CDRs are GFTLNSYGIS, VIYSDGRRTFYGDSVK, GRAAGTFDS; each variant's own CDRs replace them letter for letter.
Values are log10 of the apparent Kd in nM; lower means stronger binding.
Averages over replicates are reported, and they cover detected replicates only.
"ND" marks a missing value. The strain was present, yet no cells mated with the target were sequenced in that replicate, which points to weak or no binding.

| CDR-H1 | CDR-H2 | CDR-H3 | log10 Kd, replicates | mean, log10 nM | empty controls |
|---|---|---|---|---|---|
| GFTLNVYGIS | VIYKDGRRTFYGDSVK | GRAHGTFDS | 4.70 4.09 4.47 | 4.42 | 5 of 9 (4.59) |
| GFTLNSYGIS | VIYSDGRRTFYGDSGK | GYAAGTFDS | 2.56 2.82 ND | 2.69 | 1 of 9 (4.89) |
| GFTLNSYGII | VIYSDGRRTFAGASVK | GRAAGTFDS | 5.80 5.39 ND | 5.60 | 0 of 9 |
| LFTLNSYGIS | VIYSDARRTFYGDSVK | GRAAGTFDC | ND ND ND | ND | 0 of 9 |
| GFTLNSYGIS | VIYSDGRRTFYGDSVK | GRAMETFDS | ND ND ND | ND | 1 of 9 (3.24) |
| GFTLNSYAIS | VFYSDGRRTFYGDSVK | GRVAGTFDS | 5.13 ND ND | 5.13 | 0 of 9 |
| GFTLKSTGIS | VIYSDGRRTFYGDSQK | GRAAGTFDS | ND ND ND | ND | 2 of 9 (3.73) |
| GFTLNSYGIS | VIYSDNRRTFYGDSVK | GRAHGWFDS | ND ND 3.18 | 3.18 | 2 of 9 (3.71) |
| GFTLNSYGIT | VIYSDGRRMTYGDSVK | GRAAGTFDS | ND ND ND | ND | 0 of 9 |
| GATLNSYGIS | VIYSDSRRTFNGDSVK | GRAAGTFDS | ND ND ND | ND | 0 of 9 |
| GFTLSSYGIS | CIYSDGRRTFYGDSVN | GRAAGTFDS | 3.32 3.06 4.30 | 3.56 | 7 of 9 (4.58) |
| GFTLNSYGIW | VIYSDGRRTFYGDSNK | GRAAGTFIS | ND ND ND | ND | 0 of 9 |
| GFTLNSYDIS | VIYSDGRRTFDGDPVK | GRAAGTFDS | 3.91 3.43 4.44 | 3.93 | 2 of 9 (3.59) |
| GFTLNSYGIS | VIYSDGRRTVDGDSVK | GRAAGYFDS | ND 3.69 ND | 3.69 | 1 of 9 (2.58) |
| GFTLNSYQIS | VIYSDGRRTFYGDSVK | GRFAGTIDS | 5.02 ND 5.05 | 5.04 | 1 of 9 (4.00) |
| GSTLNSYGIV | VIYSDGWRTFYGDSVK | GRAAGTFDS | ND ND ND | ND | 0 of 9 |
| HFTLNSYGIS | VIYSDGRRTFYGFSVK | GRAAGTYDS | 4.68 3.89 4.14 | 4.24 | 4 of 9 (4.02) |
| GFTLNSYGPS | VIYSDGFRTFYGDSVD | GRAAGTFDS | ND 4.19 ND | 4.19 | 4 of 9 (4.70) |
| KFTLNSYGIS | GIYSDGFRTFYGDSVK | GRAAGTFDS | 4.30 3.57 ND | 3.94 | 5 of 9 (4.32) |
| GFTLNSYGIS | VIYSDARRTFYGISVK | GRAAGTFDS | ND ND ND | ND | 0 of 9 |
| GFTLSSYGIS | VIYSDGRRTMYGDTVK | GRAAGTFDS | 4.15 3.11 3.31 | 3.52 | 6 of 9 (4.50) |
| GFTLNSYGIS | VIYSDGRRTSYGDSVK | SRAAGTFDS | 2.08 2.24 1.16 | 1.83 | 0 of 9 |
| GFTLNDYVIS | VIYSDGRTTFYGDSVK | GRAAGTFDS | ND ND ND | ND | 2 of 9 (3.26) |
| GFTLNSYPIS | VIYSDGRRTFYGDSVK | GRAPGTFDS | ND ND ND | ND | 2 of 9 (3.37) |
| GFTKNSYGIS | VDYSNGRRTFYGDSVK | GRAAGTFDS | ND ND ND | ND | 0 of 9 |
| GFTLNSFGIS | VIYSDGRRTFYGDSVK | GRAAGTFDS | 1.05 1.46 1.28 | 1.27 | 2 of 9 (3.99) |
| GGTLNSYGIS | VIYSDGRRTFYGDSRK | GRAAKTFDS | ND 3.05 4.30 | 3.67 | 1 of 9 (3.54) |
| GFTLISPGIS | VIYSDGERTFYGDSVK | GRAAGTFDS | ND ND 3.75 | 3.75 | 2 of 9 (3.58) |
| GFTLNSYGIS | VIYSDGMRTFYYDSVK | GRAAGTFDS | 3.24 3.13 2.58 | 2.99 | 0 of 9 |
| GFTLNSYCIS | VIYSCGRRTFYGDSVK | GRAAGTFDS | ND ND ND | ND | 0 of 9 |
| GFTLNTYGIS | VINSDGRRTFYGDSVK | GRGAGTFDS | ND 2.85 ND | 2.85 | 1 of 9 (3.85) |
| GFTLNSYGYQ | VIYSDGRRTFYGDSVE | GRAAGTFDS | ND ND ND | ND | 0 of 9 |
| GFTLNSYGII | YIYSDGRRTFYGDSVK | GRAAGTFDS | ND ND ND | ND | 0 of 9 |
| GFTLNSYGIS | VIYSDGRRTCYIDSVK | SRAAGTFDS | ND 3.58 ND | 3.58 | 2 of 9 (3.63) |
| GFTLNSYGIS | VIYWDGRRTFSGDSVK | KRAAGTFDS | ND ND ND | ND | 1 of 9 (3.25) |
| GFTLNVYGAS | VIYSDGRRTFYGPSVK | GRAAGTFDS | ND 3.20 ND | 3.20 | 3 of 9 (3.36) |
| GFTLNSRGIS | VIYSDSRRTFYGDSVE | GRAAGTFDS | ND ND ND | ND | 0 of 9 |
| GFTQNSYGIS | VIYSDLRRTFYGDSVK | GNAAGTFDS | ND 4.36 ND | 4.36 | 2 of 9 (3.84) |

Parent in this assay: reference entry 0.65, copy in this library 4.11 (one replicate of three).
As a blank, each scFv also met three strains without target: over library AAYL49, 15% of these pairings were detected, typically at 4.06 and seldom below 2.83. Also given: how often the same scFv was detected with the empty control strains, with their mean in brackets.